Laboratory results from PubChem BioAssay AID463104 (Sanford-Burnham Center for Chemical Genomics, 2010).
This is a selection; strong and weak results do not stand in their true shares. Some salts or complexes appear as unconnected parts, following the source record. Activity calls are given as the source filed them.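 Rule for the calls: active = versus positive control, 20 µM dose yields 30% or more activation; inactive = the rest.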

Assay: activators of adaptive XBP1 UPR arm, primary screen, cell-based, CHO-XBP1 luciferase reporter, luminescence, uHTS (AID 463104);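 note: 100% = tunicamycin at 10 µg/mL and 0% = DMSO only wells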
Settings: IRE1-XBP1 UPR activation, at 20 µM, stronger effect = higher value, percent of tunicamycin response, DMSO as zero
How it was run: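 Assay system: CHO-XBP1 luciferase reporter cells; Schedule: 6 h treatment, 37 °C; Detection: glow luminescence from Steady-Glo reagent; Benchmarks: high control tunicamycin 10 µg/mL final, low control DMSO vehicle only.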

SMILES	activation
CP(=O)(OCCOc1ccccc1)OCCOc1ccccc1	inactive: -0.42%
CP(=O)(Nc1ccc(Cl)cc1Cl)Oc1ccccc1 (configuration not stated)	inactive: -0.03%
Cc1nc2ccc3ccccc3c2o1.O=[N+]([O-])c1cc([N+](=O)[O-])c(O)c([N+](=O)[O-])c1	inactive: 1.96%
COc1ccccc1OP(C)(=O)Nc1ccc(C)c(C)c1 (configuration not stated)	inactive: -3.1%
COc1ccc(OP(C)(=O)Nc2ccccc2Br)cc1 (configuration not stated)	inactive: -1.96%
Cc1cc(C)cc(OP(C)(=O)Nc2cccc(C(F)(F)F)c2)c1 (configuration not stated)	inactive: -1.6%
CP(=O)(Nc1ccccn1)Oc1ccccc1 (configuration not stated)	inactive: 1.74%
COc1ccccc1OP(C)(=O)Nc1ccc(C)cc1C (configuration not stated)	inactive: 0.51%
CCc1ccc(OP(C)(=O)O)cc1	inactive: 5.38%
O=[N+]([O-])c1cc([N+](=O)[O-])c(Nc2ccccn2)c([N+](=O)[O-])c1	inactive: -3.36%
Cc1c(NP(C)(=O)Oc2ccc(C(C)C)cc2)c(=O)n(-c2ccccc2)n1C (configuration not stated)	inactive: -0.28%
COc1ccc(OP(C)(=O)Nc2ccccn2)cc1 (configuration not stated)	inactive: -2.05%
CN(C)CCOC(=O)C(O)(c1ccccc1)C1CCCC1 (configuration not stated)	inactive: -0.38%
COc1ccccc1OP(C)(=O)Nc1ccc(Br)cc1 (configuration not stated)	inactive: -1.92%
CN(C)C(=O)c1c([N+](=O)[O-])cc([N+](=O)[O-])cc1[N+](=O)[O-]	inactive: -1.89%
CC(C)(C)c1ccc(OP(C)(=O)O)cc1	inactive: -1.25%
COc1ccccc1OP(C)(=O)Nc1ccccc1Br (configuration not stated)	inactive: -3.39%
CP(=O)(Nc1ccc(Cl)cc1)Oc1ccc(F)cc1 (configuration not stated)	inactive: -6.86%
COc1ccccc1OP(C)(=O)Nc1c(C)n(C)n(-c2ccccc2)c1=O (configuration not stated)	inactive: -3.08%
O=C(OCCCN1CCCC1)C(O)(c1ccccc1)C1CCCCC1 (configuration not stated)	inactive: 1.49%
CP(=O)(Oc1ccccc1)N1CCOC1=O (configuration not stated)	inactive: 0.51%
CCc1ccc(OP(C)(=O)Nc2cccnc2)cc1 (configuration not stated)	inactive: 0.24%

SMILES	activation
CCN(CC)CC(O)COC(=O)C(O)(c1ccccc1)C1CCCCC1 (configuration not stated)	inactive: -0.13%
COc1ccc(OP(C)(=O)Nc2ccc(Br)cc2)cc1 (configuration not stated)	inactive: -3.45%
CCOC(=O)c1ccc(NP(C)(=O)Oc2ccc(Cl)cc2)cc1 (configuration not stated)	inactive: -2.45%
CP(=O)(OC12CC3CC(CC(C3)C1)C2)OC12CC3CC(CC(C3)C1)C2	inactive: 1.21%
Nc1ccc2c(ccc3cccnc32)n1.O=[N+]([O-])c1cc([N+](=O)[O-])c(O)c([N+](=O)[O-])c1	inactive: 0.58%
O=[N+]([O-])c1cc([N+](=O)[O-])c(NCC2CCS(=O)(=O)C2)c([N+](=O)[O-])c1 (configuration not stated)	inactive: -2.27%
CN(C)CCOC(=O)C(O)(c1ccccc1)C1CCCCC1 (configuration not stated)	inactive: -0.44%
COc1ccc(NP(C)(=O)Oc2ccccc2OC)cc1 (configuration not stated)	inactive: -4.62%
COc1ccc(OP(C)(=O)Nc2cccc(Br)c2)cc1 (configuration not stated)	inactive: -2.32%
Cc1ccccc1NP(C)(=O)Nc1ccccc1C	inactive: -2.03%
CP(=O)(Nc1ccc2c(c1)OCCO2)Oc1ccccc1 (configuration not stated)	inactive: -3.45%
CCOP(C)(=S)SCC(=O)NC(C)(CC)C(=O)O (configuration not stated)	inactive: -2.24%
CP(=O)(Nc1ccc(SC(F)(F)F)cc1)Oc1ccc(F)cc1 (configuration not stated)	inactive: -0.77%
COc1ccc2c(c1O)-c1c(O)c(OC)cc3c1[C@H](C2)[N+](C)(C)CC3.O=[N+]([O-])c1cc([N+](=O)[O-])c([O-])c([N+](=O)[O-])c1[O-]	inactive: 0.09%
O=C(OC1CN2CCC1CC2)c1ccc([N+](=O)[O-])cc1 (configuration not stated)	inactive: -2.56%
O=C(OCCN1CCN(CCOCc2ccccc2)CC1)C(O)(c1ccccc1)c1ccccc1	inactive: 1.32%
CP(=O)(Nc1ccccc1F)Oc1ccccc1 (configuration not stated)	inactive: -1.18%
CC(C)c1ccc(OP(C)(=O)Nc2ccc(SC(F)(F)F)cc2)cc1 (configuration not stated)	inactive: -2.67%
CP(=O)(Nc1ccccc1)Oc1ccc(F)cc1 (configuration not stated)	inactive: -1.98%
CCCCCOc1ccc(NP(C)(=O)Oc2ccc(Cl)cc2Cl)cc1 (configuration not stated)	inactive: -4.27%
O=[N+]([O-])c1cc([N+](=O)[O-])c(OC2CCCCC2O)c([N+](=O)[O-])c1 (configuration not stated)	inactive: -4.87%
CCN(CC)CCCOC(=O)C(O)(c1ccccc1)C1CCCCC1 (configuration not stated)	inactive: 0.43%

SMILES	activation
CCOC(=O)c1ccc(NP(C)(=O)Oc2ccc(F)cc2)cc1 (configuration not stated)	inactive: -2.35%
COc1ccc(OP(C)(=O)Nc2ccc(SC(F)(F)F)cc2)cc1 (configuration not stated)	inactive: 3.58%
CC1=NCCc2c1[nH]c1ccccc21.O=[N+]([O-])c1cc([N+](=O)[O-])c(O)c([N+](=O)[O-])c1	inactive: -1.48%
O=C(O)c1cccc(Nc2c([N+](=O)[O-])cc([N+](=O)[O-])cc2[N+](=O)[O-])c1	inactive: -2.55%
Cc1ccc(C)c(NP(C)(=O)Oc2ccccc2)c1 (configuration not stated)	inactive: -3.24%
CP(=O)(Nc1cccc(Br)c1)Oc1ccccc1 (configuration not stated)	inactive: -4.63%
Cc1cc(C)cc(OP(C)(=O)Nc2ccccn2)c1 (configuration not stated)	inactive: -5.86%
CCOC(=O)c1ccc(NP(C)(=O)Oc2cc(C)cc(C)c2)cc1 (configuration not stated)	inactive: -2.73%
Cc1cc(C)cc(OP(C)(=O)Nc2ccc(C)cc2C)c1 (configuration not stated)	inactive: -3.52%
COc1ccccc1OP(C)(=O)Nc1cccc(Br)c1 (configuration not stated)	inactive: -0.5%
Cc1nc2ccc3ccccc3c2s1.O=[N+]([O-])c1cc([N+](=O)[O-])c(O)c([N+](=O)[O-])c1	inactive: 1.42%
O=[N+]([O-])c1cc([N+](=O)[O-])c(-c2cnn(-c3ccccc3)c2)c([N+](=O)[O-])c1	inactive: 11.4%
O=[N+]([O-])c1cc([N+](=O)[O-])c(-n2nnc3ccccc32)c([N+](=O)[O-])c1	inactive: -1.01%
CP(=O)(Nc1ccc(SC(F)(F)F)cc1)Oc1ccccc1 (configuration not stated)	inactive: -0.3%
CCCOc1ccc(NP(C)(=O)Oc2ccc(Cl)cc2)cc1 (configuration not stated)	inactive: -3.48%
CN1CCCCC1COC(=O)C1(O)c2ccccc2CCc2ccccc21 (configuration not stated)	inactive: 1.42%
COc1ccccc1OP(C)(=O)Nc1c(C)cccc1C (configuration not stated)	inactive: 0.56%
O=[N+]([O-])c1cc([N+](=O)[O-])c(Nc2nnnn2CCO)c([N+](=O)[O-])c1	inactive: -7.17%
CC1=C2N=C(C=C3N=C(C(C)=C4[N-][C@@](C)([C@@H]5N=C1[C@](C)(CCC(=O)NC[C@@H](C)OP(=O)([O-])O[C@H]1[C@@H](O)[C@@H](n6cnc7cc(C)c(C)cc76)O[C@@H]1CO)[C@H]5CC(N)=O)[C@@](C)(CC(N)=O)[C@@H]4CCC(N)=O)[C@@](C)(CC(N)=O)[C@@H]3CCC(N)=O)C(C)(C)[C@@H]2CCC(N)=O.[C-]#N.[Co+3]	inactive: -10.5%
CCOC(=O)C(CC)C1=NC(C)(C)Cc2ccccc21.O=[N+]([O-])c1cc([N+](=O)[O-])c(O)c([N+](=O)[O-])c1 (configuration not stated)	inactive: 0%
CP(=O)(Nc1ccccc1Br)Oc1ccccc1 (configuration not stated)	inactive: -2.55%
COc1ccccc1OP(C)(=O)Nc1ccccc1 (configuration not stated)	inactive: 2.96%

SMILES	activation
CP(=S)(Nn1cnnc1)Oc1ccccc1 (configuration not stated)	inactive: 1.69%
CP(=O)(Nc1ccccn1)Oc1ccc(Cl)cc1 (configuration not stated)	inactive: -2.05%
O=[N+]([O-])c1cc([N+](=O)[O-])c(O)c([N+](=O)[O-])c1.c1ccc(Oc2ccncc2)cc1	inactive: -6.21%
CCOC(=O)c1ccc(NP(C)(=O)Oc2ccc(OC)cc2)cc1 (configuration not stated)	inactive: -1.85%
CCOP(C)(=S)SCC(=O)NC(C)C(=O)O (configuration not stated)	inactive: -2.45%
CCc1ccc(OP(C)(=O)N2CCN(c3ccc([N+](=O)[O-])cc3)CC2)cc1 (configuration not stated)	inactive: -1.57%
CP(=O)(NC(=O)Nc1ccccc1)Oc1ccccc1 (configuration not stated)	inactive: 0.56%
Cc1cc(C)cc(OP(C)(=O)Nc2ccc(SC(F)(F)F)cc2)c1 (configuration not stated)	inactive: -1.23%
CP(=O)(Nc1ccc(SC(F)(F)F)cc1)Oc1ccc(Cl)cc1 (configuration not stated)	inactive: -1.76%
Cc1cccc(C)c1OP(C)(=O)Nc1ccc(SC(F)(F)F)cc1 (configuration not stated)	inactive: 0.93%
CP(=O)(Oc1ccccc1)OC(c1ccccc1)C(F)(F)F (configuration not stated)	inactive: -0.62%
CCN(CC)CCCOC(=O)C(O)(c1ccccc1)c1ccccc1	inactive: -3.66%
Cc1cc(C)cc(OP(C)(N)=O)c1 (configuration not stated)	inactive: -1.13%
COc1ccccc1OP(C)(=O)Nc1cc(Cl)ccc1C (configuration not stated)	inactive: 1.07%
COc1ccc(OP(C)(=O)Nc2cccc(F)c2)cc1 (configuration not stated)	inactive: -1.59%
COc1ccccc1OP(C)(=O)Nc1ccc(C)cc1 (configuration not stated)	inactive: -2.38%
Cc1ccc(NP(C)(=O)Oc2ccccc2)c(C)c1 (configuration not stated)	inactive: -2.65%
CCOC(=O)c1ccc(NP(C)(=O)Oc2ccccc2)cc1 (configuration not stated)	inactive: 1.25%
CC(C)(C)c1ccc(OP(C)(=O)Nc2ccc(SC(F)(F)F)cc2)cc1 (configuration not stated)	inactive: -2.05%
Cc1cccc(C)c1OP(C)(N)=O (configuration not stated)	inactive: -0.62%
O=[N+]([O-])c1cc([N+](=O)[O-])c(Nc2cccnc2)c([N+](=O)[O-])c1	inactive: -0.45%
